Experimental findings from ChEMBL document CHEMBL3774321, “Systematic diversification of benzylidene heterocycles yields novel inhibitor scaffolds selective for Dyrk1A, Clk1 and CK2” (Eur J Med Chem, 2016) are described below.

For test [1], the species on record is Homo sapiens. Nature of the test: Selectivity ratio of IC50 for full length recombinant human GST-tagged DYRK1B expressed in insect cells to IC50 for recombinant human N-terminal His6-tagged DYRK1A catalytic domain expressed in Escherichia coli BL21(DE3) cells.
For test [2], the species on record is Homo sapiens. The test is described as follows: Selectivity ratio of IC50 for recombinant human GST-tagged CLK1 catalytic domain (129 to 484 residues) expressed in Escherichia coli to IC50 for recombinant human N-terminal His6-tagged DYRK1A catalytic domain expressed in Escherichia coli BL21(DE3) cells.

For the compound `COc1ccc(/C=C2\CC(C)OC2=O)cc1` (configuration not stated), the Ratio IC50 in the test listed under Homo sapiens [1] amounted to 9.
Turning to `COc1ccc(/C=C2/SC(=S)NC2=O)cc1`, the Ratio IC50 in the test listed under Homo sapiens [2] came out at 23.
